Source: US20260151519A1 (AKTIS ONCOLOGY, published 2026)

Protein sequences, listed by entry. Tags and fused reporters are not part of them. Residues count along the entry.
UniProt Q9NQS3, 58-549: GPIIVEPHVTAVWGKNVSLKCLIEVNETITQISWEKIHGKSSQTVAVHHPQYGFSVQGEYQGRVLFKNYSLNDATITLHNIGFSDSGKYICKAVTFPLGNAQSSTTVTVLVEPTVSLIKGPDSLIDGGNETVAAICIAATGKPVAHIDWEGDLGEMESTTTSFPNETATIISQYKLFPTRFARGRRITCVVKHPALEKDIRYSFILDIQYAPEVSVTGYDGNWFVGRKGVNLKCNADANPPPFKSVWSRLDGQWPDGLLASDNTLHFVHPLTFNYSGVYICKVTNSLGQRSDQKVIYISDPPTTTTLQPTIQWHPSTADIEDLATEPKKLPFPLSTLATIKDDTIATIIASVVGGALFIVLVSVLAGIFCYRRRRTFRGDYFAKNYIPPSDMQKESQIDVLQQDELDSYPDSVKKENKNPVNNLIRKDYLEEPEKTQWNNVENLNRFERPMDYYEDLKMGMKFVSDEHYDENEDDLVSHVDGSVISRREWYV

Biological target: T1, Nectin-3 (human, UniProt Q9NQS3 58-549)
T1 construct: whole, on cells; Plasma membrane, non-tethered secreted and tethered secreted forms in the library
Assay: cell microarray on HEK293 cells, pooled compounds
Experimental: Initially, two pools of compounds were tested. Pool #1 consisted of C190, C197, and C208, and pool #2 consisted of C247, C253, and C259 at 2 μg/mL for each molecule. To perform this assay, HEK293 cells were plated on a dish and localized spots of cells were transiently over-expressed with a single cDNA encoding for GFP and one of the 6,416 targets. Included in this library were multiple clones for the Nectin family members, including plasma membrane, non-tethered secreted, and tethered secreted forms of Nectin-1, 2, 3, and 4. Secreted protein targets were tethered to the plasma membrane to aid in detection. The molecule pools were incubated on the fixed, over-expressing cell microarrays (n=2 per protein), and binding was visualized using Alexa Fluor 647 streptavidin fluorescence. All transfection efficiencies exceeded minimum thresholds for the microarray expression targets. In total, 18 library preliminary interactions (including some target clone duplicates) were identified, including Nectin-4, but no other Nectin family members were identified.

Binder	binding result
CDYDEQFFTALKRLRGADICEYIQASFQYLPGECIEEILDNLGCS (designed binder, N-term Biotin-PEG4) [C208]	no binding (tested: 2 µg/mL)
CDYDEQFFTALKRLRGGDICEYIQASFQYLPGLCIEEILDNLGCS (designed binder, N-term Biotin-PEG4) [C190]	no binding (tested: 2 µg/mL)
CEYDEQFFTALKRLRGDDICDYIQASFQYLPGLCIEEILDNLGCS (designed binder, N-term Biotin-PEG4) [C197]	no binding (tested: 2 µg/mL)
CDYDEQFFTALARLRGADICEYIQASFQYLPGECIEEILDNLGCS (designed binder, N-term Biotin-PEG4) [C247]	no binding (tested: 2 µg/mL)
CEYDEEFFTALARLRGGDICQYIQAKFQYLPALCIEEILDNLGCS (designed binder, N-term Biotin-PEG4; Kme3 at 26) [C253]	no binding (tested: 2 µg/mL)
